The text below walks through data of PubChem BioAssay AID501 (PCMD, 2006).

Sequences of proteins named here, by UniProt entry; tags and fusion partners are left off.
UniProt P25774, whole entry, looked up: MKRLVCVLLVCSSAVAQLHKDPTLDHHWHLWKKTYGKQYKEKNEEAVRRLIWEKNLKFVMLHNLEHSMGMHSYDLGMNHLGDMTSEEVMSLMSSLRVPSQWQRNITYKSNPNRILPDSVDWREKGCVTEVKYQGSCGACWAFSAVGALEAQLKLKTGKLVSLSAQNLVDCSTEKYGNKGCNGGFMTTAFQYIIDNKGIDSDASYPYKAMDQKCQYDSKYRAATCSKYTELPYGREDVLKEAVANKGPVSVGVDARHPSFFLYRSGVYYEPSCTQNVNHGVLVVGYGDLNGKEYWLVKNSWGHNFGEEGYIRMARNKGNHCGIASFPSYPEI

The entries are a selection whose mix differs from that of the whole data set. Calls of active or inactive are those of the source. Cut-off read from the data, not from the text of the source: active = inhibition above about 32% (passing the limit was not always enough); inconclusive = no clear call, values can overlap the other calls.

For this test, the target named is Cathepsin S (Homo sapiens) (UniProt P25774). Nature of the test: inhibitors of human cathepsin S, biochemical, compound mixtures (AID 501).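 Note: 0% = enzyme without compound and 100% = blank without enzyme.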 The settings on record: recombinant cathepsin S, AMC dipeptide fluorescence, pooled mixtures; stronger effect = higher value;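 tested at 5 µM per compound within 10-compound mixtures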.
What is called inhibition is the change of the read-out against control, counted positive when it falls. As to `O=C(OC1CN2CCC1CC2)C12CC3CC(CC(C3)C1)C2` (stereo not given), the inhibition is inactive: -6.17%.
In the case of `O=C(COc1ccccc1)OC1CN2CCC1CC2` (stereo not given), the inhibition was inactive: -0.24%.
As for `COP1(=S)c2c(C)nn(CCC#N)c2N=C(c2ccc(F)cc2)N1C` (stereo not given), the inhibition is inactive: 0.155%.
As to `Cc1nn(-c2ccccc2)c2c1P(=O)(N1CCOCC1)N(C)C(c1ccccc1)=N2` (stereo not given), the inhibition is inactive: 14.1%.
`O=P1(Nc2ccc(Br)cn2)COc2ccccc2OC1`: the inhibition is inactive: 8.55%.
In the case of `Cc1ccc(OCC(=O)OC2CN3CCC2CC3)cc1` (stereo not given), the inhibition was inactive: 15.7%.
The figure for `O=P1(Nc2ncccn2)COc2ccccc2OC1` is inactive: -2.72%; for `Clc1n[nH]nc1-c1nn[nH][15n]1` it is inactive: 0.87%; for `O=P1(Nc2ccccn2)COc2ccccc2OC1` it is inactive: -2.01%.
The figure for `Cc1cccc(OCC(=O)OC2CN3CCC2CC3)c1` (stereo not given) is inactive: 20.3%; for `CCOP1(=S)c2c(C)nn(CCC#N)c2N=C(c2ccccc2F)N1C` (stereo not given) it is inactive: 21.7%; for `O=P(Nc1nccs1)(c1ccccc1)c1nc2ccccc2s1` (stereo not given) it is inactive: 13.6%.
Turning to `CCOP1(=S)c2c(C)nn(CCC#N)c2N=C(c2ccc(F)cc2)N1C` (stereo not given), the inhibition is inactive: 2.27%.
As for `COC(=O)c1cc2c(s1)N=C(c1ccccc1)N(C)P2(=O)N1CCOCC1` (stereo not given), the figure is inactive: 1.71%.
As for `O=P1(Nc2nc3ccc(Cl)cc3s2)COc2ccccc2O1` (stereo not given), the figure is inactive: 2.33%; as for `c1nnnn1CCn1cnnn1`, inactive: 8.1%.
`O=P(Nc1nccs1)(c1ccccc1)c1ccccc1`: the inhibition is inactive: -3.7%.
As to `O=C(OC1CN2CCC1CC2)c1cccc(Cl)c1` (stereo not given), the inhibition is inactive: -7.73%.
As to `CCc1nc2c(n1)c1c(non1O)c1c2no[n+]1[O-]`, the inhibition is inactive: 15.3%.
For `Cc1c2non([O-])c-2c(C)[n+](=O)[n+]1[O-]`, the inhibition is inactive: 5.55%.
